# Measured values: patent EP0054873A1, “3,4-Di-substituted 1,2,5-oxadiazole-2 oxides, method for their preparation and pharmaceutical compositions containing them” (CASSELLA Aktiengesellschaft, priority 1980, dated 1982)
# Tested on: Bastardhunden
# Assay: Haemodynamic study of antianginal and antihypertensive effect in anaesthetised mongrel dogs
# Assay type: in vivo
# Conditions: Dosis 0,05 mg/kg i.v., change from steady state
structure (smiles),measurement,value
O=[N+]([O-])O[C@H]1CO[C@H]2[C@@H]1OC[C@H]2O[N+](=O)[O-],BDm Δ (mittlerer peripherer Blutdruck),-19 mmHg
same,LVEDP Δ (linksventrikulärer enddiastolischer Druck),"-2,1 mm/Hg"
same,PAP Δ (mittlerer Pulmonalarteriendruck),"-0,7 mmHg"
